Experimental water solubility values from OPERA 2.9

Source: data files of OPERA 2.9 (Mansouri et al.), github.com/kmansouri/OPERA.

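The OPERA project collected these measurements from public sources as training and test data for property models. A listed value is a point estimate from one report or more. How each value was measured is not recorded, so precision varies. Where a salt, mixture or single isomer is drawn, the source does not say that exactly this form was tested. Unmarked limits or estimates from the upstream databases cannot be ruled out.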

Solubility in water is on a log10 molar scale (set defined at 25 °C).

log solubility (log10 mol/L) | compound
-2.64 | CC(=O)Nc1c(I)cc(I)c(C(=O)O)c1I
-3.11 | CCOC(=O)/C(=C\c1cccc(Cl)c1)N=CO
-9.64 | Clc1ccc(Oc2c(Cl)c(Cl)c(Cl)c(Cl)c2Cl)c(Cl)c1
-1.23 | CC(=O)OC(=O)C(O)c1ccccc1 (stereo unspecified)
-2.14 | CCCC(=O)Nc1ccccc1
-4.8 | NC(=O)C(=O)N/N=C/C=C/c1ccc([N+](=O)[O-])o1
-1.251 | COc1ccccc1OCC(O)COC(N)=O (stereo unspecified)
-5.161 | OCCN1CCN(CCC=C2c3ccccc3Sc3ccc(C(F)(F)F)cc32)CC1
0.164 | O=C1O[C@@H]2[C@@H](O)[C@H](O)O[C@@H]2[C@H]1O
-4.814 | COc1cc(C#N)ccc1C1C(C(=O)OCCC#N)=C(C)Nc2c(C)cnc(O)c21 (stereo unspecified)
-2.356 | COc1ccc(C(=O)O)c([N+](=O)[O-])c1OC
-2.939 | Cn1c(=O)c2c(c(=O)n(C)c(=O)n2C)n(C)c1=O
-5.952 | CC1=C(/C=C/C(C)=C/C=C/C(C)=C/C=C/C=C(C)/C=C/C=C(C)/C=C/C2=C(C)CCCC2(C)C)C(C)(C)CCC1
-5.15 | O=C1O[C@H]([C@@H](O)CO)C(O)=C1Nc1ccc(S(=O)(=O)c2ccc(NC3=C(O)[C@@H]([C@@H](O)CO)OC3=O)cc2)cc1
-2.01 | NC(=O)c1ccccc1[N+](=O)[O-]
-3.933 | NC(=S)N/N=C/C=C/c1ccc([N+](=O)[O-])o1
-0.9 | CC(=O)NC(N)=O
-0.591 | COC(=O)C1=CO[C@@H](OC2OC(CO)C(O)C(O)C2O)[C@@H]2[C@@H](C)[C@@H](O)C[C@H]12 (stereo partly drawn)
-3.221 | C[C@@H](O)[C@H]1C(=O)N2C(C(=O)O)=C(S[C@@H]3CN[C@H](C(=O)Nc4cccc(C(=O)O)c4)C3)[C@H](C)[C@H]12
-3.23 | CC1=CCS(=O)(=O)C1
-1.46 | NC(=O)c1cccc([N+](=O)[O-])c1
-2.33 | CCCOC(=O)c1ccc(N)cc1
-3.918 | CC1(C)O[C@@H]2C[C@H]3[C@@H]4C[C@H](F)C5=CC(=O)C=C[C@]5(C)[C@@]4(F)[C@@H](O)C[C@]3(C)[C@]2(C(=O)CO)O1
-0.871 | CN(C)C(=O)c1ccccc1O[C@@H]1OC[C@H](O)[C@H](O)[C@H]1O
-1.245 | O=C(O)c1ccnc(C(=O)O)c1C(=O)O
-0.723 | C1=NCc2ccccc2N1
0.765 | Oc1cccc2scnc12
-2.955 | CC(C)(c1ccc(OS(=O)(=O)c2ccccc2/N=N/c2c(N)ccc3cc(S(=O)(=O)[O-])cc(O)c23)cc1)c1ccc(OS(=O)(=O)c2ccccc2/N=N/c2c(N)ccc3cc(S(=O)(=O)[O-])cc(O)c23)cc1.[Na+].[Na+]
-4.26 | Cc1ccc(C(C)NC(=O)[C@@H](NC(=O)OC(C)C)C(C)C)cc1 (stereo partly specified)
-5.039 | Cc1ccc(-c2ncc(Cl)cc2-c2ccc(S(C)(=O)=O)cc2)cn1

A selection of 2 entries from above:

| compound | log solubility (log10 mol/L) |
|---|---|
| Oc1cccc2scnc12 | 0.765 |
| CC1(C)O[C@@H]2C[C@H]3[C@@H]4C[C@H](F)C5=CC(=O)C=C[C@]5(C)[C@@]4(F)[C@@H](O)C[C@]3(C)[C@]2(C(=O)CO)O1 | -3.918 |